The values that follow are results of earlier work, collected in article PMC4631615 (Bipolar disorders, 2015).

This series has as its system pregnant women. Particulars: human, first trimester exposure, meta-analysis; cited from earlier work.

For `Cc1nc2n(c(=O)c1CCN1CCC(c3noc4cc(F)ccc34)CC1)CCCC2` [RIS, 3-(2-(4-(6-fluoro-1,2-benzisoxazol-3-yl)piperidino)ethyl)-6,7,8,9-tetrahydro-2-methyl-4H-pyrido(1,2-a)pyrimidin-4-one], the Malformation rate is 5.1%.

For the compound `Cc1cc2c(s1)Nc1ccccc1N=C2N1CCN(C)CC1` [OLA, 2-methyl-4-(4-methyl-1-piperazinyl)-10H-thieno(2,3-b)([1],[5])benzodiazepine], the Malformation rate is 3.5%.
